Measured values from PMC7891601 (Clinical Pharmacology and Therapeutics, 2020).

Assay type: in vivo, human
Settings: pyrimethamine 10 mg vs control

- impact of pyrimethamine on AUC: no impact
SMILES: CN(C)C(=N)N=C(N)N [Metformin, metformin]
